Reference: paper PMC4575266 (Nature chemical biology, 2015)

By UniProt entry, the sequences of proteins in these tests, tags left out. Where a name states a change or a piece, a line headed by the entry shows the natural chain unless it says otherwise. Residues count along the entry.
UniProt P30969: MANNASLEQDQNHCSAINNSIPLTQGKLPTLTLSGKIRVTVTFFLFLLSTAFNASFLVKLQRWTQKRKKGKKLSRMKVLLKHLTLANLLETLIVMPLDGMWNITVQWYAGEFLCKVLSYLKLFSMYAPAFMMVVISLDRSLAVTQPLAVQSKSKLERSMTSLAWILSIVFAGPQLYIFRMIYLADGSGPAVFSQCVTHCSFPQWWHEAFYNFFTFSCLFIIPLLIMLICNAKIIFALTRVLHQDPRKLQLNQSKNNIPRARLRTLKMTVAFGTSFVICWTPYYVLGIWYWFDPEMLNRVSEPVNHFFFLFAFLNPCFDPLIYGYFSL
UniProt P35049, 25-248: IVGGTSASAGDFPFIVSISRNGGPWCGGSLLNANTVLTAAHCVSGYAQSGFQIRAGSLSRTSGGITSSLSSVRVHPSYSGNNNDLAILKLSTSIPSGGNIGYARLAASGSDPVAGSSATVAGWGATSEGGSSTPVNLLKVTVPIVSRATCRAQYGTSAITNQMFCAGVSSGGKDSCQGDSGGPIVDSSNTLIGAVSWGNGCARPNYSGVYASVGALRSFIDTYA

Key:
[1] = rat
hTTR [2] = target: T1, hTTR (Homo sapiens, UniProt P02766)
hTTR [3] = target: T1, hTTR; experiment: biochemical
hTTR [4] = target: T1, hTTR; conditions: 8 240 nM, GnRH-R 6, 12, 18 nM
GnRH-R [5] = target: T2, GnRH-R (Rattus norvegicus, UniProt P30969)
[6] = cited from earlier work
[7] = 5 μM, normal human serum
hTTR in human serum = hTTR in human serum (Homo sapiens, UniProt P02766); conditions: ligand 10 μM, estimated from covalent-probe fluorescence at 3 h
Trypsin = Trypsin (Fusarium oxysporum, UniProt P35049); conditions: trypsin in buffer, hTTR 10 μM
GnRH-R [8] = target: T2, GnRH-R; conditions: control ligand
[9] = male rats, single i.v. 120 picomoles/kg

For `Cc1n[nH]c(C)c1CCCOc1cc(OCCCc2cn(CCOCCOCCOCCC(=O)NCCCC[C@@H](NC(=O)[C@H](Cc3ccc(O)cc3)NC(=O)[C@H](CO)NC(=O)[C@H](Cc3c[nH]c4ccccc34)NC(=O)[C@H](Cc3c[nH]cn3)NC(=O)[C@@H]3CCC(=O)N3)C(=O)N[C@@H](CC(C)C)C(=O)N[C@@H](CCCNC(=N)N)C(=O)N3CCC[C@H]3C(=O)NCC(N)=O)nn2)cc(C(=O)O)c1` [Compound 8], the “time present in circulation” value ([1]; i.v. 3.3 μmole/kg) was “at least 12 h”, the “SPR response with hTTR on sensor chip, 8+holo-RBP” value (hTTR [2]; 8 4 μM and holo-RBP 0.2 μM pre-incubated) was 74 ± 1 μRiU and the “SPR response with hTTR on sensor chip, analyte alone” value (hTTR [2]; 8 4 μM, holo-RBP 0.2 μM) was 34 ± 0.1 μRiU. For the same molecule, the Kd (hTTR [3]) was 317 nM, the “interaction with hTTR with increasing concentrations of GnRH-R” value (hTTR [4]) was “dose-dependent decrease” and the “serum testosterone at 1 h” value (GnRH-R [5]; [9]) was 35.6 ± 3.2 ng/mL. For the same molecule, the “serum testosterone at 6 h” value (GnRH-R [5]; [9]) was 25.6 ± 2.8 ng/mL, the “serum testosterone at 8 h” value (GnRH-R [5]; [9]) was 18.9 ± 1.0 ng/mL and the “serum testosterone at 12 h” value (GnRH-R [5]; [9]) was 12.7 ± 2.3 ng/mL. The “increase of testosterone above basal levels at 12 h” value (GnRH-R [5]; versus vehicle treated rats) was ~ 16 fold.

For `CC(C)C[C@H](NC(=O)CNC(=O)[C@H](Cc1ccc(O)cc1)NC(=O)[C@H](CO)NC(=O)[C@H](Cc1c[nH]c2ccccc12)NC(=O)[C@H](Cc1cnc[nH]1)NC(=O)[C@@H]1CCC(=O)N1)C(=O)N[C@@H](CCCNC(=N)N)C(=O)N1CCC[C@H]1C(=O)NCC(N)=O` [GnRH, gonadotropin-releasing hormone], the “amount in plasma at 15 min after administration” value ([1]; i.v. bolus 3.3 μmole/kg) is listed as “no measurable amount”, the “in vivo t1/2” value [6] is listed as 2 to 6 min and the “% remaining in human serum at 2 h” value [7] is listed as “no detectable amounts”.

For `O=C(O)c1ccc2nc(-c3cc(Cl)cc(Cl)c3)oc2c1` [Tafamidis, tafamidis], the “% binding to hTTR in human serum” value (hTTR in human serum) was 45%.

With Arg-Gly-Lys-MCA the “protection against proteolysis in the presence of hTTR” value (Trypsin) was “no protection”.

For [D-Trp^6]-GnRH, the “effect of hTTR (1 μM) on measured binding affinity to GnRH-R” value (GnRH-R [8]) was “did not affect”.
